The list shows a part of the results, in another mix than the full data. The source made the active and inactive calls. Calls follow the shape of the dose curve; as a rule, active = well fitted activation curve with a large enough effect; inconclusive = small, poorly fitted or top-dose-only effect; inactive = flat fitted curve, though single readings scatter.
Assay: qHTS Assay for Modulators of Hemoglobin Beta Chain Splicing; also: 0% is about no effect
Details: HBB splicing reporter cell assay, EGFP reporter with mutant IVS2-654 intron, normalised to 500 nM splice-correcting PNA
Excerpt: NIH Chemical Genomics Center [NCGC]
NIH Molecular Libraries Screening Centers Network [MLSCN]
PI Name: Dr. Ryszard Kole
Modulation of Alternative Splicing as Therapy
Abnormal splicing is associated with a number of diseases, including cancer and genetic diseases such as cystic fibrosis, muscular dystrophy and beta-thalassemia. Alteration of disease associated splicing patterns provides a promising target for treatment. […] Mutations in the second intron of the beta-globin gene at positions are clinically relevant and cause mis-splicing which results in an out of frame gene product.
EGFP-654 and 705 HeLa Cells as screen system.
HeLa cell lines were stably transfected with a construct in which the EGFP (enhanced green fluorescent protein) cDNA was interrupted by the second intron of the beta-globin gene (IVS2-654). The ISV2 intron contains mutations which cause mis-splicing of EGFP and premature termination of EGFP which results in a nonfluorescent protein product. […] Expression of the transgene was driven by the CMV promoter. We concluded that a low molecular weight compound, which restored correct splicing of intron 2 would also generate functional EGFP protein, resulting in a fluorescent signal. Thus, the HeLa cells that express the EGFP-654 construct can be used for high throughput screening of a chemical library.
NCGC Assay Protocol Summary:
High Throughput Screening. Freshly thawed HeLa EGFP-654 cells were seeded in 5 ul of optimem media (Invitrogen) containing 2 % fetal calf serum (Hyclone) and 1x penicillin/streptomycin (Invitrogen) at a concentration of 500 cells per well in 1536-well plates. Cells were incubated overnight at 37C in 5% CO2. The next day, cells were treated with DMSO, 500 nM antisense ISV2 654 PNA control oligo, or library compound and allowed to grow at 37C in 5% CO2 for 2 days. The PNA oligo blocked the mutation site in the intron and allowed proper (wild type) splicing to occur, resulting in full length EGFP expression and also allowed for optimization of the assay parameters. Plates were read in the Acumen Explorer (TTP Labtech) using 488 nm laser excitation and 500-520 nm emission PMT filter in a 1 x […] capture mode. Fluorescnet Fluorescent objects ranging in size from […] were measured and the total peak GFP intensity for each well was used for data analysis.
Keywords: Thalassemia, beta-thalassemia, beta-globin, EGFP, ISV2 654, ISV2 705, SSO, PNA, antisense, splicing, MLSMR, MLSCN, NIH Roadmap, qHTS, NCGC

[1] = at 46.1 µM (top of the series) unless noted

Compound: [N-]=[N+]=NCC(N)=O
- activation [1]: inactive: 1.34% [at 9.22 µM]

Compound: O=[As]c1ccc(S(=O)(=O)NCCO)cc1 (stereo unspecified)
- activation [1]: inactive: 2.76% [at 9.22 µM]

Compound: NC(=O)Nc1cc([As](=O)(O)O)cc(I)c1O
- activation [1]: inactive: 2.78% [at 9.22 µM]

Compound: O=C(OC1CN2CCC1CC2)C12CC3CC(CC(C3)C1)C2 (stereo unspecified)
- activation [1]: inactive: 0.773% [at 0.369 µM]

Compound: O=C(O)[C@@H](O)c1ccc([As](=O)(O)O)cc1
- activation [1]: inactive: 3.57% [at 9.22 µM]

Compound: O=C(COc1ccccc1)OC1CN2CCC1CC2 (stereo unspecified)
- activation [1]: inactive: 0.358%

Compound: COP1(=S)c2c(C)nn(CCC#N)c2N=C(c2ccc(F)cc2)N1C (stereo unspecified)
- activation [1]: inactive: -2.31%

Compound: CN(N=O)C(=N)N[N+](=O)[O-]
- activation [1]: inactive: 0.212%

Compound: O=P1(Nc2ccc(Br)cn2)COc2ccccc2OC1
- activation [1]: inactive: 4.94% [at 0.369 µM]

Compound: O=P1(Nc2ncccn2)COc2ccccc2OC1
- activation [1]: inactive: 3.47% [at 57.5 µM]

Compound: Cc1nn(-c2ccccc2)c2c1P(=O)(N1CCOCC1)N(C)C(c1ccccc1)=N2 (stereo unspecified)
- activation [1]: inactive: -0.39%

Compound: CN(C(=O)Cc1ccc(Cl)c(Cl)c1)[C@@H]1CCCC[C@H]1N1CCCC1
- activation [1]: inactive: 0.561% [middle of 4 runs]

Compound: Clc1n[nH]nc1-c1nn[nH][15n]1
- activation [1]: inactive: 0.964%

Compound: CN(CCCl)Cc1cc(Cl)c(NC2=NCCN2)c(Cl)c1
- activation [1]: inactive: -3.23%

Compound: O=P1(Nc2ccccn2)COc2ccccc2OC1
- activation [1]: inactive: 1.75% [at 0.369 µM]

Compound: CN(C(=O)Cc1ccc(Cl)c(Cl)c1)[C@@H]1CC[C@@]2(CCCO2)C[C@H]1N1CCCC1
- activation [1]: inactive: -0.174%

Compound: O=C(CC(=O)c1ccccc1)O[C@H]1CN2CCC1CC2
- activation [1]: inactive: 3.21% [at 9.22 µM]

Compound: NS(=O)(=O)Cc1ccc([As](=O)(O)O)cc1
- activation [1]: inactive: 3.25% [at 9.22 µM]

Compound: CCOP1(=S)c2c(C)nn(CCC#N)c2N=C(c2ccc(F)cc2)N1C (stereo unspecified)
- activation [1]: inactive: -4.69%

Compound: NC(=O)Nc1ccc([As](=O)(O)O)cc1
- activation (at 20.6 µM (top of the series)): inactive: -1.95%
- activation (at 46.1 µM (top of the series)): inactive: 0.6%

Compound: O=[As](O)(O)c1ccc([As](=O)(O)O)cc1
- activation [1]: inactive: 0.989% [at 9.22 µM]

Compound: CCOP1(=S)c2c(C)nn(CCC#N)c2N=C(c2ccccc2F)N1C (stereo unspecified)
- activation [1]: inactive: -0.187% [at 57.5 µM]

Compound: O=P(Nc1nccs1)(c1ccccc1)c1nc2ccccc2s1 (stereo unspecified)
- activation [1]: inactive: 6.07%

Compound: COC(=O)c1cc2c(s1)N=C(c1ccccc1)N(C)P2(=O)N1CCOCC1 (stereo unspecified)
- activation [1]: inactive: -0.181% [at 57.5 µM]

Compound: O=P1(Nc2nc3ccc(Cl)cc3s2)COc2ccccc2O1 (stereo unspecified)
- activation [1]: inactive: 9.81% [at 0.369 µM]

Compound: C[C@@H](O)COc1ccc([As](=O)(O)O)cc1N
- activation [1]: inactive: 2.09% [at 9.22 µM]

Compound: CN1CCC[C@H](OC(=O)C(c2ccccc2)c2ccccc2)C1
- activation [1]: inactive: -0.366% [at 9.22 µM]

Compound: c1nnnn1CCn1cnnn1
- activation [1]: inactive: 1.71% [at 1.84 µM]

Compound: O=P(Nc1nccs1)(c1ccccc1)c1ccccc1
- activation [1]: inactive: 3.16% [at 57.5 µM]

Compound: O=C(OC1CN2CCC1CC2)c1cccc(Cl)c1 (stereo unspecified)
- activation [1]: inactive: -1.94% [at 0.369 µM]

Compound: [N-]=[N+]=Nc1ccc([As](=O)(O)O)cc1
- activation [1]: inactive: 4.44% [at 9.22 µM]

Compound: Cc1cc([N+](=O)[O-])cc([N+](=O)[O-])c1O
- activation [1]: inactive: -0.503%

Compound: CN(C(=O)Cc1ccccc1)[C@@H]1CC[C@@]2(CCCO2)C[C@H]1N1CCCC1
- activation [1]: inactive: 0.423%

Compound: O=C(CO)Nc1ccc([As](=O)(O)O)cc1
- activation [1]: inactive: -2.1% [at 9.22 µM]

Compound: CCc1nc2c(n1)c1c(non1O)c1c2no[n+]1[O-]
- activation [1]: inactive: 0.0382%

Compound: NCC[C@@H](N)CSP(=O)(O)O
- activation [1]: inactive: 1.14% [at 9.22 µM]

Compound: Cc1c2non([O-])c-2c(C)[n+](=O)[n+]1[O-]
- activation [1]: inactive: -4.69%

Compound: O=[N+]([O-])c1ccc(C[As](=O)(O)O)cc1
- activation [1]: inactive: 0.967% [at 9.22 µM]

Compound: C(Cc1nn[nH]n1)c1nn[nH]n1
- activation [1]: inactive: 3.78% [at 9.22 µM]

Compound: [N-]=[N+]=NCC(O)CN=[N+]=[N-] (stereo unspecified)
- activation [1]: inactive: -1.81% [at 9.22 µM]
